{"source": "ChEMBL document CHEMBL2016545", "about": "“Discovery of S-777469: an orally available CB2 agonist as an antipruritic agent” (Bioorg Med Chem Lett, 2012)", "species_on_record": "Homo sapiens", "experiment": "Selectivity ratio of Ki for human CB1 receptor to Ki for human CB2 receptor"}
{"smiles": "COCCn1c(C)c(C)s/c1=N\\C(=O)C1C(C)(C)C1(C)C", "values": [{"measurement": "Ratio Ki", "result": 425}]}
